Test results as given in patent US12337063B2, “Formulation for atropine sulfate rapidly-disintegrating sublingual tablets” (dated 2025).

Experiment: pH measurement of alkalizing excipients
[1] = 0.50% excipient dissolved in 2 mL water, n=5
[2] = 1% excipient dissolved in 2 mL water, n=5

Substance	pH Reading [1]	pH Reading (0.50% excipient dissolved in 2 mL water, n=5, listed as Ca Carb)	pH Reading [2]	pH Reading (1% excipient dissolved in 2 mL water, n=5, listed as Ca Carb)	pH Reading (0.50% excipient dissolved in 2 mL water, n=5, listed as Na Bicarb)	pH Reading (1% excipient dissolved in 2 mL water, n=5, listed as Na Bicarb)	pH Reading (1% with AS RDST (incorporated into RDST Formulation 2))	pH Reading (1% with AS RDST (incorporated into RDST Formulation 2), listed as Na Bicarb)	pH Reading (0.50% excipient dissolved in 2 mL water, n=5, listed as Na Cit)	pH Reading (1% excipient dissolved in 2 mL water, n=5, listed as Na Cit)
calcium carbonate	6.6 ± 0.1	6.6±0.1	7.6 ± 0.1	7.6±0.1	–	–	–	–	–	–
sodium bicarbonate	7.2 ± 0.2	–	8.1 ± 0.3 ^§	–	7.2±0.2	8.1±0.3	7.9 ± 0.1	7.9±0.1	–	–
sodium citrate	6.2 ± 0.3	–	7.5 ± 0.1	–	–	–	–	–	6.2±0.3	7.5±0.1
